For one compound, EC50 results are on record in patent US6586191B2 (dated 2003).

The EC50 is the concentration giving half of the maximal effect. Read a low EC50 as higher potency in that assay.

This assay concerns the target T1, rat GALR2 receptor (Rattus norvegicus, UniProt O08726).
T1 sequence (O08726 1-372): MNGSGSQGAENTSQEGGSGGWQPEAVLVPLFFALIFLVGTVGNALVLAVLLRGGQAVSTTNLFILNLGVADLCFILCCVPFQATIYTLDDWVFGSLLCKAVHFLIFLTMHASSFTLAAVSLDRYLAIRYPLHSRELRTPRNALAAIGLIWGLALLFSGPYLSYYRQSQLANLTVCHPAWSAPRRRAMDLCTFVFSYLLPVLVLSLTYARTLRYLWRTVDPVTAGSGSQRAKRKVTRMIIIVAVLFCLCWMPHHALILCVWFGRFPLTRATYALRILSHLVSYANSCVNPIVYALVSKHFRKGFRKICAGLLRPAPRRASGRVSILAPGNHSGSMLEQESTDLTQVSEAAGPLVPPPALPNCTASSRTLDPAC
Put plainly: PI hydrolysis in CHO cells stably transfected with rat GALR2 (C-rGalR2-79).

In the case of `CC(C)C[C@H](NC(=O)[C@H](CC(C)C)NC(=O)[C@@H](Cc1c[nH]c2ccccc12)NC(=O)[C@H](Cc1ccccc1)NC(=O)[C@@H](Cc1c[nH]c2ccccc12)NC(=O)[C@H](CCC(N)=O)NC(=O)[C@H](CCC(N)=O)NC(=O)[C@@H]1CCCN1C(=O)[C@H](CCCCN)NC(=O)[C@@H]1CCCN1C(=O)[C@@H](CCCNC(=N)N)NC(=O)[C@@H]1CCCN1C(=O)CNC(=O)[C@H](CC(C)C)NC(=O)[C@H](CC(C)C)NC(=O)[C@H](Cc1ccc(O)cc1)NC(=O)CNC(=O)[C@H](C)NC(=O)[C@H](CO)NC(=O)[C@H](CC(N)=O)NC(=O)[C@H](CC(C)C)NC(=O)[C@@H](NC(=O)[C@H](Cc1c[nH]c2ccccc12)NC(=O)CN)[C@@H](C)O)C(N)=O` [Peptide C7, C7], the EC50 was 11 nM.
